Earlier results as cited in patent publication US11219627B2, “Clearance of amyloid beta” (priority 2014, dated 2022).

System: Alzheimer patients
Details: cited from earlier work

For “bapineuzumab: an antibody to the N-terminus of Aβ”, the “cortical amyloid lower in treated than in untreated patients” value (78 weeks) is listed as 25%, the “ARIA occurrence (fraction)” value (ApoE4+ homozygotes) is listed as “About ⅓” and the ARIA occurrence (ApoE4+ patients at low dose, and ApoE4− patients at high dose) is listed as “about 20%”. The deaths (ApoE4 carriers) was 2.2%, the deaths (noncarriers) was 2.1% and the “incidence of vasogenic edema” value (retrospective review of MRIs) was 17%.

Like-named read-outs stand apart in the source and are kept apart here.
